“And” between values parts separate entries of the source, which are not always exact repeats. Equal entries are not always repeated. This is a selection; strong and weak results do not stand in their true shares. The source made the active and inactive calls. Cut-off read from the data, not from the text of the source: active = inhibition mostly above about 24% (no sharp cut-off); inactive = mostly below about 32%.
assay: NALP1 inflammasome inhibitors in reconstituted yeast, colorimetric, S. cerevisiae, triplicate retest (AID 2071); conditions: S. cerevisiae NALP1/ASC/caspase-1 growth, X-gal OD620, 72 h; at 10 µM; active compounds read high

Which inhibition does the source give for `O=[N+]([O-])c1ncn(CCn2ncnc2[N+](=O)[O-])n1` here?
Its inhibition is inactive: -14.8%.

Which inhibition does the source give for `O=C(O)CNc1ccc([As](=O)(O)O)cc1` here?
The inhibition was inactive: 5.5%.

With `O=[N+]([O-])c1cccc(NC2=NCC(CBr)S2)c1` (stereo not given) as the molecule, how does the inhibition read?
The inhibition was inactive: 3.8%.

With `O=C(Nc1cc([As](=O)(O)O)ccc1O)c1ccccc1` as the molecule, how does the inhibition read?
The inhibition was inactive: 10.4%.

Which inhibition does the source give for `CCN(/C(=N/P(=O)(N1CCOCC1)N1CCOCC1)N1CCOCC1)c1ccc(OC)cc1` here?
Its inhibition is inactive: -10.2%.

For `Nc1ccc([As](=O)(O)c2ccc(N)cc2)cc1`, which inhibition is on record?
The inhibition was inactive: 1.5%.

For `CC1CCN(C(=O)Oc2c(Cl)cc(Cl)c3cccnc23)CC1`, which inhibition is on record?
The inhibition was inactive: 1.9%.

For `CN(C)C(=O)OCCc1n(C)cc[n+]1C`, which inhibition is on record?
Its inhibition is inactive: 18.8%.

Which inhibition does the source give for `CC(C)=N/N=C(\N)N[N+](=O)[O-]` here?
Its inhibition is inactive: 6.6%.

Which inhibition does the source give for `COc1ccc(C2=NCC(CBr)S2)cc1` (stereo not given) here?
The inhibition was inactive: -9.7%.

Which inhibition does the source give for `CCc1nc2c(n1)c1c(non1O)c1c2no[n+]1[O-]` here?
The inhibition was inactive: -14.7%.

With `O=[N+]([O-])c1cc([N+](=O)[O-])c(CCNc2ccccc2)c([N+](=O)[O-])c1` as the molecule, how does the inhibition read?
The inhibition was inactive: -6.2%.

For `Cc1ccc(NP(=O)(Oc2ccccc2)Oc2ccccc2)nc1`, which inhibition is on record?
The inhibition was inactive: 12.3%.

Which inhibition does the source give for `O=[N+]([O-])c1cccc2n[nH]nc12` here?
The inhibition was inactive: -0.1%.

With `CC(=O)N1C2C3N(C(C)=O)C1C1N(C(C)=O)C(C(N1C(C)=O)N3C(C)=O)N2C(C)=O` as the molecule, how does the inhibition read?
The inhibition was inactive: 4.5%.

Which inhibition does the source give for `O=C(NC(Sc1ccncn1)C(Cl)(Cl)Cl)c1ccccc1` (stereo not given) here?
The inhibition was inactive: 4.8%.

With `Cc1c2non([O-])c-2c(C)[n+](=O)[n+]1[O-]` as the molecule, how does the inhibition read?
The inhibition was inactive: 16.1%.

For `Oc1ccccc1CNc1ccccn1`, which inhibition is on record?
The inhibition was inactive: -19.6%.

For `CC(C)CC(=O)NC(Sc1ccc(Cl)cc1)C(Cl)(Cl)Cl` (stereo not given), which inhibition is on record?
Its inhibition is inactive: 2.1%.

For `Cc1ccc(N/C(=N/P(=O)(N2CCOCC2)N2CCOCC2)N2CCOCC2)cc1`, which inhibition is on record?
Its inhibition is inactive: -5.9%.

With `NC(=O)c1cc([N+](=O)[O-])cc([N+](=O)[O-])c1N` as the molecule, how does the inhibition read?
The inhibition was inactive: 1.2%.

With `CN1CCCC(OC(=O)C(c2ccccc2)c2ccccc2)C1` (stereo not given) as the molecule, how does the inhibition read?
The inhibition was inactive: 27.4%.

Which inhibition does the source give for `Clc1ccc(Cl)c(NC2=NCC(CBr)S2)c1` (stereo not given) here?
Its inhibition is inactive: 10%.

With `Cc1ccc(OP(=O)(Nc2nccs2)Oc2ccc(C)cc2)cc1` as the molecule, how does the inhibition read?
Its inhibition is inactive: -7.9%.

For `COc1ccccc1OP(=O)(Nc1ccc(C)cn1)Oc1ccccc1OC`, which inhibition is on record?
The inhibition was inactive: -15.6%.

With `O=[N+]([O-])c1cc([N+](=O)[O-])c(CCN2CCOCC2)c([N+](=O)[O-])c1` as the molecule, how does the inhibition read?
The inhibition was inactive: 7.4%.

Which inhibition does the source give for `Nc1cccc2ccc([As](=O)(O)O)cc12` here?
The inhibition was inactive: 9.5%.

With `O=P(Nc1nc2ccc(Cl)cc2s1)(c1ccccc1)c1ccccc1` as the molecule, how does the inhibition read?
The inhibition was inactive: -12.5%.

Which inhibition does the source give for `CC(=O)Nc1ccc([As](=O)(O)O)cc1` here?
Its inhibition is inactive: 19%.

Which inhibition does the source give for `O=C(O)c1ccccc1[As](=O)(O)O` here?
The inhibition was inactive: 16.4%.

With `Cc1cc(SC(NC(=O)c2ccc(F)cc2)C(Cl)(Cl)Cl)ncn1` (stereo not given) as the molecule, how does the inhibition read?
Its inhibition is inactive: 14.1%.

For `CCOP(=O)(Nc1ccccc1)OCC`, which inhibition is on record?
The inhibition was inactive: 3.1% and inactive: 3.7%.

Which inhibition does the source give for `CCC(=O)N1C2C3N(C(=O)CC)C1C1N(C(=O)CC)C(C(N1C(=O)CC)N3C(=O)CC)N2C(=O)CC` here?
The inhibition was inactive: -0.5%.

For `O=C(OC1CN2CCC1CC2)c1ccccc1` (stereo not given), which inhibition is on record?
The inhibition was inactive: 31.2%.

Which inhibition does the source give for `Cc1ccc(OP(=O)(Nc2ccccn2)Oc2ccc(C)cc2)cc1` here?
The inhibition was inactive: -9.5%.

With `CC(=O)NC(SC(=S)N(CC(C)C)CC(C)C)C(Cl)(Cl)Cl` (stereo not given) as the molecule, how does the inhibition read?
The inhibition was inactive: 28.6%.

With `COC(=O)c1cc2c(s1)N=C(c1ccccc1)N(C)P2(=O)N1CCOCC1` (stereo not given) as the molecule, how does the inhibition read?
Its inhibition is inactive: 8.8%.

Which inhibition does the source give for `O=c1c2cc([N+](=O)[O-])ccc2[nH]c2c([N+](=O)[O-])cc([N+](=O)[O-])cc12` here?
Its inhibition is inactive: 6.4%.

With `Cc1ccccc1OP(=O)(Nc1ccccn1)Oc1ccccc1C` as the molecule, how does the inhibition read?
Its inhibition is inactive: 25.7%.

With `CCOC(=O)NC(Sc1ccccc1)C(Cl)(Cl)Cl` (stereo not given) as the molecule, how does the inhibition read?
The inhibition was inactive: -3.3%.

For `Cc1ccc(NP(=O)(Oc2cccc(C)c2)Oc2cccc(C)c2)nc1`, which inhibition is on record?
Its inhibition is inactive: 22.3%.

With `c1ccc(-c2nn[nH]n2)c(-c2nn[nH]n2)c1` as the molecule, how does the inhibition read?
Its inhibition is inactive: -7.9%.

Which inhibition does the source give for `CCNC(=S)/N=C(\N)N[N+](=O)[O-]` here?
The inhibition was inactive: 3.4%.

For `O=C(NC1CCS(=O)(=O)C1)NP(=S)(Oc1ccccc1)Oc1ccccc1` (stereo not given), which inhibition is on record?
The inhibition was inactive: 4.2%.

With `C[C@H]1OP(=O)(Oc2ccccc2)C[C@@H]2O[C@@H]21` (stereo not given in full) as the molecule, how does the inhibition read?
Its inhibition is inactive: 6.2%.

With `C[C@@H]1C=CCP(=O)(Oc2ccccc2)O1` (stereo not given in full) as the molecule, how does the inhibition read?
The inhibition was inactive: 3.7%.

Which inhibition does the source give for `CC(=O)c1ccc(N2CC2c2ccncc2)cc1` (stereo not given) here?
The inhibition was inactive: 3.1%.

For `CC(=O)Nc1ccc(Oc2c([N+](=O)[O-])cc([N+](=O)[O-])cc2[N+](=O)[O-])cc1`, which inhibition is on record?
The inhibition was inactive: -7.7%.

Which inhibition does the source give for `CC(=O)Nc1ccc([As](=O)(O)O)c(O)c1` here?
Its inhibition is inactive: 9.3%.

Which inhibition does the source give for `CCOc1ccc(C2=NCC(CBr)S2)cc1` (stereo not given) here?
Its inhibition is inactive: 11.5%.

With `O=P1(Nc2nc3ccc(Cl)cc3s2)COc2ccccc2O1` (stereo not given) as the molecule, how does the inhibition read?
Its inhibition is inactive: 10.1%.

Which inhibition does the source give for `CC(C)(C)C(=O)NC(Sc1ccccc1)C(Cl)(Cl)Cl` (stereo not given) here?
Its inhibition is inactive: -0.3%.

With `CC(C)C(=O)NC(Sc1ccccc1)C(Cl)(Cl)Cl` (stereo not given) as the molecule, how does the inhibition read?
The inhibition was inactive: 35.4%.

Which inhibition does the source give for `O=P(Nc1nccs1)(c1ccccc1)c1ccccc1` here?
Its inhibition is inactive: 12.5%.

For `c1nnnn1CCn1cnnn1`, which inhibition is on record?
Its inhibition is inactive: 20.3%.

Which inhibition does the source give for `O=[As](O)(c1ccccc1)c1ccc(O)cc1` here?
Its inhibition is inactive: -1.6%.

For `O=[N+]([O-])c1ccc(O)c(/C=N/Nc2ccc([N+](=O)[O-])cc2[N+](=O)[O-])c1`, which inhibition is on record?
The inhibition was inactive: 33.6%.

With `CC(=O)NC(SC(=S)N(C)C)C(Cl)(Cl)Cl` (stereo not given) as the molecule, how does the inhibition read?
The inhibition was active: 80.1%.

Which inhibition does the source give for `O=C(OC1CN2CCC1CC2)c1cccc(Cl)c1` (stereo not given) here?
Its inhibition is inactive: 16.5%.

For `C(Cc1nn[nH]n1)Cc1nn[nH]n1`, which inhibition is on record?
The inhibition was inactive: 11%.

With `Nc1ccc([As](=O)(O)c2ccc([N+](=O)[O-])cc2)cc1` as the molecule, how does the inhibition read?
Its inhibition is inactive: 17.5%.

Which inhibition does the source give for `O=P(Nc1ccccn1)(c1ccc(Br)cc1)c1ccc(Br)cc1` here?
Its inhibition is inactive: 12.4%.

With `CN(C)C1(CNC(=O)c2ccc(Cl)c(S(N)(=O)=O)c2)CCCCC1` as the molecule, how does the inhibition read?
The inhibition was inactive: 5.8%.

Which inhibition does the source give for `C[C@H]1OP(=O)(Oc2ccccc2)[C@H](O)[C@H](O)[C@H]1N=[N+]=[N-]` (stereo not given in full) here?
The inhibition was inactive: -1.1%.

With `O=P(Nc1nc2ccccc2s1)(c1ccccc1)c1ccccc1` as the molecule, how does the inhibition read?
The inhibition was inactive: 12.6%.

Source: PubChem BioAssay AID2071 (Sanford-Burnham Center for Chemical Genomics, 2009)
